The chains behind the UniProt entries cited, without tags or fusion partners. Where a name states a change or a piece, a line headed by the entry shows the natural chain unless it says otherwise. A line that says so, or that is headed by a name, gives the form on record, which may keep a tag or linker. Residues count along the entry.
UniProt P00533, 25-1210 L858R limits assumed: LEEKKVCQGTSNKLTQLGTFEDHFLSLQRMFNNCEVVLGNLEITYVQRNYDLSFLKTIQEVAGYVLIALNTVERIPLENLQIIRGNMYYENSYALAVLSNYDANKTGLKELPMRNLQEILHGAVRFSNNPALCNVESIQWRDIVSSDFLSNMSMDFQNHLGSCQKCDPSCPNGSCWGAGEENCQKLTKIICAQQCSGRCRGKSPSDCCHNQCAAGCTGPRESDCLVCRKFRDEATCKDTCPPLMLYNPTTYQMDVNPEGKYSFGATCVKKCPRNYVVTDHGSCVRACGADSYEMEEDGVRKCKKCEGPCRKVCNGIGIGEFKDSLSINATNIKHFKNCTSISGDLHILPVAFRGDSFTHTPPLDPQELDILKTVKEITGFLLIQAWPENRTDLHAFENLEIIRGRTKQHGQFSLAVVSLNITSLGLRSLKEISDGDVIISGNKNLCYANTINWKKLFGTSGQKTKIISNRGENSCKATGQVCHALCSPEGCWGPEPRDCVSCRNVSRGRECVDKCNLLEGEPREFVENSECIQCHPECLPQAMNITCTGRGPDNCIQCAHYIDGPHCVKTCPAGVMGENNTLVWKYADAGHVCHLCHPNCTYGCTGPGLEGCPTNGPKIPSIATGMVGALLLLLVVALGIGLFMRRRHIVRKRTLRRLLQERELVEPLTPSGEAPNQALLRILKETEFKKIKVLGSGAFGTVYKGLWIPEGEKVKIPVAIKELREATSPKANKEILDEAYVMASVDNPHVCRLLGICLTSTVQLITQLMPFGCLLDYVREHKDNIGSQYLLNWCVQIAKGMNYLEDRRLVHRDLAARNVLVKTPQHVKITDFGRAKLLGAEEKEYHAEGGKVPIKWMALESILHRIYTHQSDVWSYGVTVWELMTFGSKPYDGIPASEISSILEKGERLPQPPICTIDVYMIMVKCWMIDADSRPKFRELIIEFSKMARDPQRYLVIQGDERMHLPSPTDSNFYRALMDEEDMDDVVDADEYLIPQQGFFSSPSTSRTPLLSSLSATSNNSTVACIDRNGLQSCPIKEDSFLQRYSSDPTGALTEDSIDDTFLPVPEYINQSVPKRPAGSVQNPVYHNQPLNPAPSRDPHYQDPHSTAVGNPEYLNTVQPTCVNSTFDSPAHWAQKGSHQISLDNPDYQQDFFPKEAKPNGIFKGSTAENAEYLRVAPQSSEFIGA
UniProt P00533, 25-1210 T790M/L858R limits assumed: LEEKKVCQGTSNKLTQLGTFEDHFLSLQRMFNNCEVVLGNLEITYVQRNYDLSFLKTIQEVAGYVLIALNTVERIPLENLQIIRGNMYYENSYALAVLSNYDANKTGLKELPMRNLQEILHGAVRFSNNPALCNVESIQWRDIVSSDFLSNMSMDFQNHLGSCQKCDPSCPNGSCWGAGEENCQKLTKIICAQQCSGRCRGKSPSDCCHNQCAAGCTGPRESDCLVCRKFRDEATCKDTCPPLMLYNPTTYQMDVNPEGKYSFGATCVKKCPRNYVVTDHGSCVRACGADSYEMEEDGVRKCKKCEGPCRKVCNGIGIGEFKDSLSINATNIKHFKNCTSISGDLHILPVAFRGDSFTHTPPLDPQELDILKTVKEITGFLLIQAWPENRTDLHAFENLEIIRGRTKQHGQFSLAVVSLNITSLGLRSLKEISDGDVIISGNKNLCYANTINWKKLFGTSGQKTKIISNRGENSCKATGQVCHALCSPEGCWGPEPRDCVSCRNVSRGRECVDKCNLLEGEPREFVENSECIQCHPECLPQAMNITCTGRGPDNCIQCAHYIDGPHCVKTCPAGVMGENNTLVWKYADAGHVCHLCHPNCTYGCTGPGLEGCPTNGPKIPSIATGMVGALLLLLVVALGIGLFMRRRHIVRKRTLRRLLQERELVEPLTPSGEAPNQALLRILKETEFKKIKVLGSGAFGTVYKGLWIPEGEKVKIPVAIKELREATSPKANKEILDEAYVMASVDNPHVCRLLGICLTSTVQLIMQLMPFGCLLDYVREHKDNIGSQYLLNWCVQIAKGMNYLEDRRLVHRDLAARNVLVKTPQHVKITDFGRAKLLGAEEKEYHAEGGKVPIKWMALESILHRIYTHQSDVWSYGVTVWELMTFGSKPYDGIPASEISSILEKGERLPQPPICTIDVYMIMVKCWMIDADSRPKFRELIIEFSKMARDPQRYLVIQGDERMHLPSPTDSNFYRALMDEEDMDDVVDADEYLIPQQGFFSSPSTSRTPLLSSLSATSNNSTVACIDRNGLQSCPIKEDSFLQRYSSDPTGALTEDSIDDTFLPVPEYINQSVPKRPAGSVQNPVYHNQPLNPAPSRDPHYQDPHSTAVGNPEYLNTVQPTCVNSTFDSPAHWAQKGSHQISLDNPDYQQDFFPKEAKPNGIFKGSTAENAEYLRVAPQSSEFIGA
UniProt P00533, 25-1210 T790M/C797S/L858R limits assumed: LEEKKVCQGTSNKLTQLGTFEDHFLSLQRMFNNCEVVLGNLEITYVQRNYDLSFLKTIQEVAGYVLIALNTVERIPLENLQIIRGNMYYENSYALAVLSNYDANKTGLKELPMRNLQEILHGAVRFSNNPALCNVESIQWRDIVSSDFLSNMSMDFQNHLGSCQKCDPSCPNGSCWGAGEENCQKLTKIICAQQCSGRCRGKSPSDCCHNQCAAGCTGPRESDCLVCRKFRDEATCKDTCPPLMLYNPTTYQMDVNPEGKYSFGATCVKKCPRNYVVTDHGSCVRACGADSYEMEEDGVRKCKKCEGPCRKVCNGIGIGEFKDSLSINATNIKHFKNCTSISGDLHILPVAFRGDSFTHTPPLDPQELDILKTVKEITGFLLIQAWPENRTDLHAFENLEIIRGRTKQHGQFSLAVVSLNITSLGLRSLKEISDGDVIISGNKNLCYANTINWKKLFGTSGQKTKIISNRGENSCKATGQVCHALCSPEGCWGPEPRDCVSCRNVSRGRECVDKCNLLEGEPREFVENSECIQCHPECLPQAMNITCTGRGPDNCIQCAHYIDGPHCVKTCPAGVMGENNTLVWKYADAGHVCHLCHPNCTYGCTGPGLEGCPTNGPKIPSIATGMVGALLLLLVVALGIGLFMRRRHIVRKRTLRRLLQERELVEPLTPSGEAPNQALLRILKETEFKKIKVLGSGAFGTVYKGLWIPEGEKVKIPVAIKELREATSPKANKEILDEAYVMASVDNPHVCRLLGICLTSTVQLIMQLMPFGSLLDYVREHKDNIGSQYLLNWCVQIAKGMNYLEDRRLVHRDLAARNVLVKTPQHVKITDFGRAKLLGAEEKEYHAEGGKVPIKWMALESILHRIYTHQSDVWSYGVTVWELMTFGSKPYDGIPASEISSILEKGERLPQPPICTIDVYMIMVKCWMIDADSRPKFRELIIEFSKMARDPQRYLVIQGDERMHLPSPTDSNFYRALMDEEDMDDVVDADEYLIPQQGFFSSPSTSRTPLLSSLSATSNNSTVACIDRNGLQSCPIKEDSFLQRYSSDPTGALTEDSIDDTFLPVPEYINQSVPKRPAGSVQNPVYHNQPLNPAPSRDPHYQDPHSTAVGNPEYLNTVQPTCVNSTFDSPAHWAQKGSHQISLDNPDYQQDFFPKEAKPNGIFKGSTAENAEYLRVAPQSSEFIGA
UniProt P00533, with tags, fused parts or gaps C797S/DEL746-750: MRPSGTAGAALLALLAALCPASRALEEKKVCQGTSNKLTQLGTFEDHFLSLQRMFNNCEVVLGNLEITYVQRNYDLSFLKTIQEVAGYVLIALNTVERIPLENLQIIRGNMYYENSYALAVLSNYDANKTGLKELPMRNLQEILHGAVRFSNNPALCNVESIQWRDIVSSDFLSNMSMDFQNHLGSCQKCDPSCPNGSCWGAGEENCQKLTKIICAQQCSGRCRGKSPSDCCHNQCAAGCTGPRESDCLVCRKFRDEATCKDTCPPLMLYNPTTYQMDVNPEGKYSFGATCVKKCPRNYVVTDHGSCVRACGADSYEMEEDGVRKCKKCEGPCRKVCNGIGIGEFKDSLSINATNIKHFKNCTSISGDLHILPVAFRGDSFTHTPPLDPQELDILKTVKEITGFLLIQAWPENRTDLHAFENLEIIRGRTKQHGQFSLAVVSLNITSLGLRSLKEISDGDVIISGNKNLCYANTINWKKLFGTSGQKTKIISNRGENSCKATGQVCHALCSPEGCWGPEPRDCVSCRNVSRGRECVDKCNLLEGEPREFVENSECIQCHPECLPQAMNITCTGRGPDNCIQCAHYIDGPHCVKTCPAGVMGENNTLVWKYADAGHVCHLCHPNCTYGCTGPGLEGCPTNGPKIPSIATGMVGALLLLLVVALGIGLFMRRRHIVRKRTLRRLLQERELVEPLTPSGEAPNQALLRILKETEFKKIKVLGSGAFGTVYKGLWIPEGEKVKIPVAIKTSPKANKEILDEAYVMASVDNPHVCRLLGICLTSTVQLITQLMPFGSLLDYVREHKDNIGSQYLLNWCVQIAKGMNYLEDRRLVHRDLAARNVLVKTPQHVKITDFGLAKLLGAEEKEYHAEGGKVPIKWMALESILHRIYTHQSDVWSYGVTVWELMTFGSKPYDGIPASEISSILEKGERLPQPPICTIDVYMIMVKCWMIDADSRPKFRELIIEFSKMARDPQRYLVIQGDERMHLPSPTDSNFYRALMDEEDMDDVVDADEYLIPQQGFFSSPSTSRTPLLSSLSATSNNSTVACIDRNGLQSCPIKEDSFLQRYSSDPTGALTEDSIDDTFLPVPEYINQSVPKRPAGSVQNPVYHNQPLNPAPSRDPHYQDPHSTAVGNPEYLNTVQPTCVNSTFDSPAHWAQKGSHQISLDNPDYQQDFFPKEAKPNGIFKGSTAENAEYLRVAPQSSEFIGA
UniProt P00533, with tags, fused parts or gaps DEL746-750/T790M: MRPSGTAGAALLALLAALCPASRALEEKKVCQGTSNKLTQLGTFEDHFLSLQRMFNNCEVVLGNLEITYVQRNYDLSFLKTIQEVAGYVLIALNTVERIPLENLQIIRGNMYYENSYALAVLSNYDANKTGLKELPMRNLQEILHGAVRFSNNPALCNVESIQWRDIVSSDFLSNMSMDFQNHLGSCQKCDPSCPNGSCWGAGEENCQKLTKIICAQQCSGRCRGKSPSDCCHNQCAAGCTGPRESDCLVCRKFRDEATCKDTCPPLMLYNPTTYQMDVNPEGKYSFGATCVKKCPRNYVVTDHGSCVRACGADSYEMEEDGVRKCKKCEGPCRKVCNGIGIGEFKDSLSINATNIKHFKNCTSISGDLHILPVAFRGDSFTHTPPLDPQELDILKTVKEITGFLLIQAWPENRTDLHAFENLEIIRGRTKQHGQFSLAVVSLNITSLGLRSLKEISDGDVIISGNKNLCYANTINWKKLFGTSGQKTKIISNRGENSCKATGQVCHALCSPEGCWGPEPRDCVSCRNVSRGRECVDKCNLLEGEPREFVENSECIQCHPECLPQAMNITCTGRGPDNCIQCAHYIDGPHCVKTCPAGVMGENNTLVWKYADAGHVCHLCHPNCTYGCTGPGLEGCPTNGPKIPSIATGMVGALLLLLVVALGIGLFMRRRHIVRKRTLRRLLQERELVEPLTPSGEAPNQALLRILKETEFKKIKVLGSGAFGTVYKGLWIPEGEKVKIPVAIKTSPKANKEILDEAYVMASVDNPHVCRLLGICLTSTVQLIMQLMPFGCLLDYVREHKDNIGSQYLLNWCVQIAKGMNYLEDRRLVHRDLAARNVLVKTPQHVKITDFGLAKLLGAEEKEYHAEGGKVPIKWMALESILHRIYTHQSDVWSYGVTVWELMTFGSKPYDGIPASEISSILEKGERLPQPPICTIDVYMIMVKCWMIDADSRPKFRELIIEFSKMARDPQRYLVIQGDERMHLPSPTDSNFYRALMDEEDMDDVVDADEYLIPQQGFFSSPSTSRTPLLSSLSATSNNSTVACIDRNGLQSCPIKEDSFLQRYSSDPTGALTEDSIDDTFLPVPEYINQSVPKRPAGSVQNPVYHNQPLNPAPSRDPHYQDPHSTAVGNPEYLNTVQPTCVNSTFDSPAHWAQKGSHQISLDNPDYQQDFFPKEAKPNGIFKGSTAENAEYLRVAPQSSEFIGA

According to patent US20230148005A1, “MACROCYCLIC COMPOUNDS AND USES THEREOF” (THESEUS PHARMACEUTICALS, INC., priority 2020, published 2023):

Tests used:
EGFR^L858R/T790M/C^797S = EGFR^L858R/T790M/C^797S (Homo sapiens, UniProt P00533, C797S/L858R/T790M); assay: in vitro kinase assay (HTRF KinEASE-TK kit), LTC; details: read-out: kinase LTC IC50, kinase inhibition
Description: (§1) Assays using an in vitro kinase assay kit (HTRF KinEASE-TK kit) can be used to study the inhibitory activity of compounds described herein with respect to EGFR mutants such as EGFR^L858R, EGFR^L58R/T790M, and EGFR^L858R/T790M/C^797S.

EGFR^L58R/T790M = EGFR^L58R/T790M (Homo sapiens, UniProt P00533, L858R/T790M); assay: in vitro kinase assay (HTRF KinEASE-TK kit), LT; details: read-out: kinase LT IC50, kinase inhibition
Description: as §1

EGFR^L858R = EGFR^L858R (Homo sapiens, UniProt P00533, L858R); assay: in vitro kinase assay (HTRF KinEASE-TK kit), L; details: read-out: kinase L IC50, kinase inhibition
Description: as §1

[1] = target: Ba/F3 EGFR-Del19/T790M/C797S (Homo sapiens, UniProt P00533, T790M/C797S, cells depend on it, form not given); assay: Ba/F3 viability assay (CellTiter-Glo), DTC; details: read-out: BaF3 DTC IC50, anti-proliferation
Description: (§2) Inhibition of cell proliferation can be studied using Ba/F3 viability assays, including the Promega CellTiter-Glo cell viability assay. This assay can be used to study the effect of compounds described herein in the following assays: (1) Ba/F3 Parental; (2) Ba/F3 EGFR-Del19/T790M; (3); Ba/F3 EGFR-Del19/C797S; and (4) Ba/F3 EGFR-Del19/T790M/C797S.

Ba/F3 EGFR-Del19/T790M = Ba/F3 EGFR-Del19/T790M (Homo sapiens, UniProt P00533, T790M, cells depend on it, form not given); assay: Ba/F3 viability assay (CellTiter-Glo), DT; details: read-out: BaF3 DT IC50, anti-proliferation
Description: as §2

Ba/F3 EGFR-Del19/C797S = Ba/F3 EGFR-Del19/C797S (Homo sapiens, UniProt P00533, C797S, cells depend on it, form not given); assay: Ba/F3 viability assay (CellTiter-Glo), DC; details: read-out: BaF3 DC IC50, anti-proliferation
Description: as §2

Ba/F3 Parental = assay: Ba/F3 viability assay (CellTiter-Glo), parental; details: read-out: BaF3 parental IC50, anti-proliferation
Description: as §2

Structure (SMILES) | IC50 (EGFR^L858R/T790M/C^797S) | IC50 (EGFR^L58R/T790M) | IC50 (EGFR^L858R) | GI50 [1] | GI50 (Ba/F3 EGFR-Del19/T790M) | GI50 (Ba/F3 EGFR-Del19/C797S) | IC50 (Ba/F3 Parental)
CC1CCOc2c(cnn2C)-c2nccc(n2)Nc2ncc3c(N4CCC4)nn1c3n2 (stereo not shown) | < 10 nM | < 10 nM | 10 to 100 nM | 10 to 100 nM | 10 to 100 nM | 10 to 100 nM | 100 to 1000 nM
C[C@H]1CCOc2c(cnn2C)-c2nccc(n2)Nc2cc3c(cn2)c(-c2ccn(C)n2)nn31 | < 10 nM | < 10 nM | 10 to 100 nM | 10 to 100 nM | 10 to 100 nM | 10 to 100 nM | > 1000 nM
CCn1ncc2c1OCCCC(C)n1nc(N3CCC3)c3cnc(cc31)Nc1ccnc-2n1 (stereo not shown) | < 10 nM | < 10 nM | 10 to 100 nM | 10 to 100 nM | 10 to 100 nM | 10 to 100 nM | > 1000 nM
C[C@H]1CCOc2c(cnn2C)-c2nccc(n2)Nc2cc3c(cn2)c(-c2ccccc2)nn31 | < 10 nM | < 10 nM | 10 to 100 nM | 10 to 100 nM | 10 to 100 nM | 10 to 100 nM | 100 to 1000 nM

Second part, led by results:

IC50 (EGFR^L858R/T790M/C^797S) | IC50 (EGFR^L58R/T790M) | IC50 (EGFR^L858R) | Structure (SMILES) | GI50 [1] | GI50 (Ba/F3 EGFR-Del19/T790M) | GI50 (Ba/F3 EGFR-Del19/C797S) | IC50 (Ba/F3 Parental)
100 to 1000 nM | 10 to 100 nM | > 1000 nM | CNC(=O)C1CCCN1c1nn2c3cc(ncc13)Nc1ccnc(n1)-c1cnn(C)c1OCCC2 (stereo not shown) | > 1000 nM | > 1000 nM | > 1000 nM | > 1000 nM
< 10 nM | < 10 nM | < 10 nM | C[C@H]1CCCOc2c(cnn2C)-c2nccc(n2)Nc2cc3c(cn2)c(N2CCCC2)nn31 | < 10 nM | < 10 nM | < 10 nM | 100 to 1000 nM
10 to 100 nM | < 10 nM | 100 to 1000 nM | CN(C)C1CCC(Oc2nn3c4cc(ncc24)Nc2ccnc(n2)-c2cnn(C)c2OCCC3)CC1 (stereo not shown) | 100 to 1000 nM | 100 to 1000 nM | 100 to 1000 nM | > 1000 nM
